Paper PMC5683014 (Acta Crystallographica. Section D, Structural Biology, 2017)

Target: T1, hen egg-white lysozyme (Gallus gallus (chicken), UniProt P00698)
T1 construct: C-type hen egg-white lysozyme, chicken, 129 positions; also called HEL; chicken lysozyme; source: bought: Sigma
Test: BLI; BLItz (ForteBio); biotinylated Fab loaded on streptavidin biosensors (rehydrated in PBS with 0.1% BSA); lysozymes passed on and off at a range of concentrations; global fits of kinetics (BlitzPro 1.2.1.3)
Settings: both partners purified

Kd: 540 pM | koff: 0.00012 s⁻¹ | kon: 220000 M⁻¹ s⁻¹
B1: HyHEL5 Fab (Fab, V domains shown)
VH: EVQLQQSGAELMKPGASVKISCKASGYTFSDYWIEWVKQRPGHGLEWIGEILPGSGSTNYHERFKGKATFTADTSSSTAYMQLNSLTSEDSGVYYCLHGNYDFDGWGQGTTLTVSS
VL: DIVLTQSPAIMSASPGEKVTMTCSASSSVNYMYWYQQKSGTSPKRWIYDTSKLASGVPVRFSGSGSGTSYSLTISSMETEDAATYYCQQWGRNPTFGGGTKLEIK
notes: HyHEL5 Fab heavy chain; HyHEL5 kappa light chain; Cloned into pCEP4; also called HyHEL5 Fab arm; source: Expi293, transiently expressed, purified from supernatant (HisTrap FF Crude)
